uPA generation: inhibitors of cell surface uPA generation | cell surface uPA generation assay, qHTS | Potency, µM (titrated, usually from 38.3 µM), for inactives: top-dose activity change, negative = inhibition, actives largely listed as inhibitors | hit rate 0.31% among 330,000; active means well fitted inhibition curve with a large enough effect; inconclusive means small, poorly fitted or top-dose-only effect; inactive means no such curve, though single readings can be large or run the other way; tested in mouse RAW 264.7 cells; further: potency means the concentration at half of the fitted maximal effect; on the % scale 0 is the no-effect control and ±100 the full control effect; nearly all actives have a fitted effect of over 55% in size
miR-21 reporter: raises the signal of a miR-21 reporter | HeLa miR-21 FLuc reporter, luciferase, 48 h | Potency, µM (highest dose often 38.3 µM), for inactives: at the highest dose reporter change, positive = more light | 340,000 tested, under 10 active | AID 2288; active = well fitted rising curve with a large enough effect; inconclusive = small, poorly fitted or top-dose-only effect; inactive = no such curve, though single readings can be large or run the other way;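 also: % of control where 0% means no effect; miR-21 action dims this reporter so a rising signal means less miR-21 action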
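Luminescence from a firefly luciferase reporter carrying a miR-21 binding site downstream, stably expressed under a CMV promoter in HeLa cells that make miR-21 endogenously, reports miRNA modulation after 48 h compound exposure up to approximately 40uM final.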
DT40 TDP1 no CPT: qHTS for Inhibitors of human tyrosyl-DNA phosphodiesterase 1 (TDP1): qHTS in cells in absence of CPT; DT40 Tdp1-/- hTDP1 cells, no CPT, ATP luminescence, 48 h; Potency, µM (series often up to 46.2 µM), without a hit: at the highest dose activity change, negative = growth inhibition, usual class: inhibitors; hit rate 15% among 420,000; further: potency means the concentration at half of the fitted maximal effect; on the % scale 0 is the no-effect control and ±100 the full control effect; nearly all actives have a fitted effect of over 55% in size
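A cellular qHTS used chicken DT40 cells lacking endogenous Tdp1 but carrying stably transfected human TDP1. Compounds were applied without camptothecin, and cell growth kinetics were judged by ATP-dependent luminescence after ≥48 hr.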
DT40 TDP1 CPT: DT40-hTDP1 cell growth loss with CPT; chicken DT40 Tdp1-/-;hTDP1 cells + 20 nM CPT, ATP luminescence, 48 h; Potency, µM (top dose mostly 46.2 µM), inactives show at the highest dose activity change, negative = growth inhibition, actives largely listed as inhibitors; hit rate 12% among 420,000; AID 686979; further: potency means the concentration at half of the fitted maximal effect; on the % scale 0 is the no-effect control and ±100 the full control effect; nearly all actives have a fitted effect of over 55% in size
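Cell growth measured by CellTiter-Glo luminescence after a minimum 48 h, 37 C compound exposure with 20 nM CPT in Tdp1-knockout DT40 cells stably expressing hTDP1, seeded 400/well; qHTS titration format.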
TDP1 block: blocks human tyrosyl-DNA phosphodiesterase 1; Potency, µM (top dose mostly 130 µM), inactives show top-dose activity change, negative = inhibition, usual class: inhibitors; recombinant TDP1, AlphaScreen DNA substrate cleavage; hit rate 0.28% among 350,000; further: potency means the concentration at half of the fitted maximal effect; on the % scale 0 is the no-effect control and ±100 the full control effect; nearly all actives have a fitted effect of over 40% in size
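Here, a 5' biotin and 3' phosphotyrosine-FITC DNA oligonucleotide reports Tdp1 activity: intact substrate bridges AlphaScreen beads, while cleavage leaves a 3' phosphate and drops signal. All incubations at room temperature.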
* hit, by the source's call; ? = inconclusive; nt = no result given; [ ] = remark or other dose. Rows were chosen to be rich in hits. Some 16% of all compounds tested hit in one or more screens of this group. Unless noted, the call rests on the fitted dose curve; in most records, active means well fitted curve in the direction sought with a large enough effect; inconclusive means small, poorly fitted or top-dose-only effect, or another doubt; inactive means no such curve, though single readings can be large; an effect the other way counts as inactive or inconclusive.

nr | Structure | uPA generation | miR-21 reporter | DT40 TDP1 no CPT
1 | COc1ccc(-c2cc(-c3cccs3)c(C#N)c(SCC(=O)NCc3ccco3)n2)cc1 | -8.7% | 20.1% | 2.31µM*
2 | O=C(Nc1c2c(nn1-c1ccccc1)CSC2)c1ccc(N2C(=O)CCC2=O)cc1 | 8.6% | 3.8% | -22.1%
3 | COc1ccc(-c2cc(C3CC3)nc(SCC(=O)c3cccs3)c2C#N)cc1 | 7.0% | -7.4% | 11.6µM*
4 | CCCSc1nc(-c2ccc(OC)cc2)cc(-c2ccccc2OC)c1C#N | nt | 1.7% | 18.4µM*
5 | COC(=O)CSc1nnc(COc2cccc3ccccc23)o1 | -7.5% | 0.3% | -13.3%
6 | CCNC(=O)C(=O)c1c(-c2ccccc2)[nH]c2ccccc12 | -1.7% | -2.4% | -8.7%
7 | Nc1sc(Cc2ccccc2)cc1C(=O)c1c(-c2ccccc2)[nH]c2ccccc12 | nt | nt | 4.61µM*
8 | O=C(O)c1ccc([N+](=O)[O-])cc1 | 14.4% | nt | 9.8%

nr | DT40 TDP1 CPT | TDP1 block
1 | 1.84µM* | 2.0%
2 | 5.7% | 7.2%
3 | ? | -0.6%
4 | ? | -11.0%[12.3 µM]
5 | -5.1% | nt
6 | -5.9% | 2.4%
7 | 3.66µM* | nt
8 | 11.9% | 15.5%

Continuation:
nr | Structure | uPA generation | miR-21 reporter | DT40 TDP1 no CPT
9 | Cc1ccccc1CN1CCN(c2nc3ccccc3s2)CC1 | -16.8% | -56.6% | -15.2%
10 | COc1ccc(CN2CCN(c3nc4ccccc4s3)CC2)cc1 | 13.3% | -8.2% | ?
11 | CCCCNC(=O)CSC1=Nc2ccccc2C2=NC(CCC(=O)NCc3ccccc3OC)C(=O)N12 (centres undefined) | nt | 6.0% | ?
12 | COc1ccc(NC(=O)CSC2=Nc3ccccc3C3=NC(CCC(=O)NCCc4ccccc4)C(=O)N23)c(OC)c1 (centres undefined) | nt | 18.1% | 8.2µM*
13 | COc1ccccc1CNC(=O)CCC1N=C2c3ccccc3N=C(SCC(N)=O)N2C1=O (centres undefined) | nt | -0.2% | 3.66µM*
14 | COc1ccccc1CNC(=O)CCC1N=C2c3ccccc3N=C(SCc3ccccc3Cl)N2C1=O (centres undefined) | nt | ? | ?
15 | COCCCNC(=O)CSC1=Nc2ccccc2C2=NC(CCC(=O)NCc3ccccc3OC)C(=O)N12 (centres undefined) | nt | -3.5% | 18.4µM*
16 | Cc1noc(C(=O)Nc2ccc(F)c(Cl)c2)c1Cl | -3.8% | -30.7% | -10.1%

nr | DT40 TDP1 CPT | TDP1 block
9 | 18.4µM* | nt
10 | ? | nt
11 | ? | 2.5%
12 | 23.1µM* | 2.5%
13 | 29.1µM* | 4.4%
14 | ? | 3.4%
15 | 16.4µM* | 4.4%
16 | -7.0% | nt

New compounds follow.
nr | Structure | uPA generation | miR-21 reporter | DT40 TDP1 no CPT
17 | CCCCC/C(=N\NC(=O)CCC(=O)NCc1ccccc1)c1ccccc1 | 0.4% | -3.4% | ?
18 | Cc1nn2c(C(F)(F)F)cc(-c3ccc(OC(C)C)cc3)nc2c1C#N | nt | 0.4% | -25.8%
19 | OC(COCc1ccccc1)CN1CCCC1 (centres undefined) | 2.3% | -4.6% | -7.6%
20 | c1ccc(COC(CN2CCCCCC2)CN2CCCCCC2)cc1 | ? | 23.8% | 20.6µM*
21 | Cc1c(NC(=O)C2CC(c3c(F)cccc3Cl)=NO2)c(=O)n(-c2ccccc2)n1C (centres undefined) | 7.6% | -5.4% | -7.5%
22 | NC(=O)c1cc([N+](=O)[O-])c(Cl)cc1NCc1ccccn1 | ? | nt | 25.9µM*
23 | CCN(CC)S(=O)(=O)c1nnc(NC(=O)COc2ccccc2)s1 | nt | -35.5% | ?
24 | COC(=O)c1c(NC(=O)c2ccc(S(=O)(=O)N3CCCCC3C)cc2)sc2c1CCN(C(C)C)C2 (centres undefined) | nt | -2.3% | ?

nr | DT40 TDP1 CPT | TDP1 block
17 | ? | 7.6%
18 | -15.4% | -4.2%
19 | -9.0% | 1.9%
20 | 10.3µM* | nt
21 | ? | 4.1%
22 | ? | -2.8%
23 | -25.7% | 3.9%
24 | ? | 7.8%

Other entries follow.
nr | Structure | uPA generation | miR-21 reporter | DT40 TDP1 no CPT
25 | CCOC(=O)c1c(NC(=O)c2ccc(S(=O)(=O)N(C)C3CCCCC3)cc2)sc2c1CCN(C(C)C)C2 | nt | 14.9% | 7.31µM*
26 | CCCCN(C)S(=O)(=O)c1ccc(C(=O)Nc2sc3c(c2C(=O)OCC)CCN(C(C)C)C3)cc1 | nt | 20.6% | 5.8µM*
27 | O=C(NCCC1=CCCCC1)C1CCC(CNc2c(N3CCCCC3)c(=O)c2=O)CC1 (centres undefined) | 3.5% | -4.7% | ?
28 | CCOCc1cn(CC(=O)c2ccc([N+](=O)[O-])cc2)c(C)nc1=N | -6.2% | 17.3% | ?
29 | CCOCc1cn(CC(=O)c2ccc(Cl)cc2)c(C)nc1=N | 2.1% | -7.8% | -5.8%
30 | O=S1(=O)N[C@@H](Cc2ccccc2)COc2cccc(N3CCC[C@@H]3CO)c21 | nt | nt | -28.8%
31 | CNC(=S)N1CCN(CCNC2=CC(=O)CC(C)(C)C2)CC1 | 7.0% | 4.1% | 13.7%
32 | CC1(C)CC(NCCN2CCN(C3=CC(=C(C#N)C#N)CC(C)(C)C3)CC2)=CC(=C(C#N)C#N)C1 | -14.4% | 0.6% | 13µM*

nr | DT40 TDP1 CPT | TDP1 block
25 | 11.6µM* | 2.6%
26 | 8.2µM* | 7.8%
27 | ? | nt
28 | 23.1µM* | 3.9%
29 | -3.3% | 3.9%
30 | -12.1% | nt
31 | 4.5% | -3.1%
32 | 18.4µM* | 5.4%

Structures above that have a Cl atom, in the order listed:
nr | Structure | uPA generation | miR-21 reporter | DT40 TDP1 no CPT
14 | COc1ccccc1CNC(=O)CCC1N=C2c3ccccc3N=C(SCc3ccccc3Cl)N2C1=O (centres undefined) | nt | ? | ?
16 | Cc1noc(C(=O)Nc2ccc(F)c(Cl)c2)c1Cl | -3.8% | -30.7% | -10.1%
21 | Cc1c(NC(=O)C2CC(c3c(F)cccc3Cl)=NO2)c(=O)n(-c2ccccc2)n1C (centres undefined) | 7.6% | -5.4% | -7.5%
22 | NC(=O)c1cc([N+](=O)[O-])c(Cl)cc1NCc1ccccn1 | ? | nt | 25.9µM*
29 | CCOCc1cn(CC(=O)c2ccc(Cl)cc2)c(C)nc1=N | 2.1% | -7.8% | -5.8%

nr | DT40 TDP1 CPT | TDP1 block
14 | ? | 3.4%
16 | -7.0% | nt
21 | ? | 4.1%
22 | ? | -2.8%
29 | -3.3% | 3.9%

Next part
nr | Structure | uPA generation | miR-21 reporter | DT40 TDP1 no CPT
33 | OCC[C@@H]1C[C@@H](O)[C@H](O)[C@@]2(Cc3ccccc3O2)O1 | 5.7% | 1.1% | -8.4%
34 | CC(=O)Nc1ccc(S(=O)(=O)N2CCN(c3cc(C)ccc3C)CC2)cc1 | -6.1% | -2.5% | ?
35 | CN1C(=O)C(C)(C)c2cc(S(=O)(=O)N3CCN(c4ccccc4F)CC3)ccc21 | -74.2% | -0.5% | 23.1µM*
36 | CN1C(=O)Cc2cc(S(=O)(=O)N3CCN(c4ccccc4F)CC3)ccc21 | 1.1% | 1.7% | -29.5%
37 | Cc1cccc(N2CCN(S(=O)(=O)c3ccc4c(c3)C(C)(C)C(=O)N4C)CC2)c1C | 1.7% | 2.2% | ?
38 | Cc1ccc(C)c(N2CCN(S(=O)(=O)c3ccc4c(c3)C(C)(C)C(=O)N4C)CC2)c1 | 4.3% | 5.8% | 23.1µM*
39 | CN(CC(=O)NCC(=O)Nc1ccc(F)cc1)C1CCS(=O)(=O)C1 (centres undefined) | 5.5% | nt | -2.7%
40 | COc1ccc(-c2cn(Cc3ccc(C(N)=O)cc3)c(-c3ccc(Cl)nc3)n2)cc1 | 6.2% | nt | -4.6%

nr | DT40 TDP1 CPT | TDP1 block
33 | -3.1% | nt
34 | 16.4µM* | 5.3%
35 | ? | nt
36 | ? | 0.6%
37 | ? | nt
38 | ? | nt
39 | 2.7% | 0.5%
40 | -7.5% | 4.5%

Next section
nr | Structure | uPA generation | miR-21 reporter | DT40 TDP1 no CPT
41 | O=C(C[n+]1cccc(Br)c1)c1cccc([N+](=O)[O-])c1 | nt | nt | -19.6%
42 | O=C(O)c1cccc2c1C(=O)N(Cc1ccccc1)C2 | -2.3% | 2.2% | 10.3%
43 | CC(=O)/C(C#N)=C1\NC(=O)C(Cc2ccccc2C)S1 (centres undefined) | -9.7% | 26.0% | 2.31µM*
44 | CC(=O)/C(C#N)=C1\NC(=O)C(Cc2ccccc2)S1 (centres undefined) | -4.7% | 24.5% | ?
45 | CCCOc1ccc(-c2nonc2NC(=O)c2oc3ccc(C)cc3c2C)cc1OCCC | nt | 3.0% | ?
46 | CCOc1ccc(-c2nonc2NC(=O)c2oc3cc(C)c(C)cc3c2C)cc1OCC | nt | 3.7% | ?

nr | DT40 TDP1 CPT | TDP1 block
41 | -0.8% | nt
42 | 6.3% | nt
43 | ? | nt
44 | ? | 8.7%
45 | 9.2µM* | -3.7%
46 | -0.6% | -6.1%
